Results published in ChEMBL document CHEMBL5500382, “Discovery of potent small molecule ubiquitin-specific protease 10 inhibitors with anti-hepatocellular carcinoma activity through regulating YAP expression” (Eur J Med Chem, 2024).

Sequences of proteins named here, by UniProt entry; tags and fusion partners are left off.
UniProt Q14694, whole entry: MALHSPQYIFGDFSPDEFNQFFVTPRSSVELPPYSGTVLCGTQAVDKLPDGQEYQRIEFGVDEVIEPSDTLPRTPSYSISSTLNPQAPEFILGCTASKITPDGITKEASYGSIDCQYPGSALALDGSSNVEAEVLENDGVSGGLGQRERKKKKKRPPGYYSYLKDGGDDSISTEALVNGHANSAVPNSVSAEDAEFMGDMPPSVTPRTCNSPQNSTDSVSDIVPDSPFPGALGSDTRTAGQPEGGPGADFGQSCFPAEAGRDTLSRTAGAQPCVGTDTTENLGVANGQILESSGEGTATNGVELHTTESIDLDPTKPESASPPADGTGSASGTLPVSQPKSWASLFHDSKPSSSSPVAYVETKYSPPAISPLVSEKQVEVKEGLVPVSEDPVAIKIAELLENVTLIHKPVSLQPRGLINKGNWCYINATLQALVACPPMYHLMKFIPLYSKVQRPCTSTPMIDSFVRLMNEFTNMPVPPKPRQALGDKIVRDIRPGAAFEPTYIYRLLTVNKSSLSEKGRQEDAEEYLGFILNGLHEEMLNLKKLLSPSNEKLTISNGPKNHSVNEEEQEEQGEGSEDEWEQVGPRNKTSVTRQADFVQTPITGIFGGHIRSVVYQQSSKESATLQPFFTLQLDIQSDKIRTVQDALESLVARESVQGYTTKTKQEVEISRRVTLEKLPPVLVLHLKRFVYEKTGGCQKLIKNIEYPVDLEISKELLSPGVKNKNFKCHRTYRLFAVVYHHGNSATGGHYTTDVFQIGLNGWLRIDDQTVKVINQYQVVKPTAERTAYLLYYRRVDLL

Tests used:
[1] = target: Ubiquitin carboxyl-terminal hydrolase 10 (Homo sapiens, UniProt Q14694); conditions: dose 10-10000 nM, time 60.0 min
Huh-7 [2] = assay: cells; conditions: Homo sapiens, Huh-7, 24 h, read-out: Activity
Huh-7 [3] = assay: cells; conditions: Homo sapiens, Huh-7, 24 h, read-out: Activity; remark: listed apart in the source
Huh-7 [4] = assay: cells; conditions: Homo sapiens, Huh-7, 24 h, read-out: Activity; remark: listed apart in the source
Huh-7 [5] = assay: cells; conditions: Homo sapiens, Huh-7, 24 h, read-out: Activity; remark: listed apart in the source
Huh-7 [6] = assay: cells; conditions: Homo sapiens, Huh-7, 24 h, read-out: Activity; remark: listed apart in the source

`Cc1ccc2c(=O)c(-c3nc(-c4ccccc4C)no3)cn(CC(=O)Nc3c(F)cccc3F)c2n1` was tested, and the inhibition [1] was “Dose-Dependent Effect”.

With `Cc1ccc2c(=O)c(-c3nc(-c4ccccc4C)no3)cn(CC(=O)NCCc3ccc(Cl)cc3)c2c1` the viability at 10 µM (Huh-7 [2]) was 61.4%, the viability at 5 µM (Huh-7 [3]) was 88.9% and the viability at 2.5 µM (Huh-7 [4]) was 94.4%. It also gave a viability at 1.25 µM (Huh-7 [5]) of 93.8% and a viability at 0.625 µM (Huh-7 [6]) of 92.8%.
